As a reminder, the pIC50 is −log10 of the IC50, conventionally taken in molar units. Lower therefore signals a high IC50.

pIC50: −log10 of the molar value.

The subject of this experiment is Ba/F3-MER cells. Put plainly: Cell viability assay (MTS). The format is cell-based. The note with it: 72 h.

On to `Nc1nc(Nc2ccc3c(c2)CC[C@@H](N2CCCC2)CC3)nn1-c1cc2c(nn1)-c1ccccc1CCC2` [Compound 3, Bemcentinib, reference compound], for which the negative logarithm of the IC50 (pIC50) is 6.10.

The values above are taken from paper PMC11247487, “Discovery of Dual MER/AXL Kinase Inhibitors as Bifunctional Small Molecules for Inhibiting Tumor Growth and Enhancing Tumor Immune Microenvironment” (Journal of Medicinal Chemistry, 2024).
